Columns and labels:
[1] = Selectivity ratio of IC50 for JAK1 over IC50 for JAK2
[2] = Selectivity ratio of IC50 for JAK3 over IC50 for JAK2

SMILES | Ratio IC50 [1] | Ratio IC50 [2]
Cc1cc(Nc2nc(N3CCN(C(=O)Cc4ccccc4)CC3)nn3cccc23)n[nH]1 | 4.5 | 19
Cc1cc(Nc2nc(N3CCN(C(=O)Cc4ccc(Cl)cc4)CC3)nn3cccc23)n[nH]1 | – | 16
Cc1cc(Nc2nc(N3CCN(C(=O)Cc4ccccc4F)CC3)nn3cccc23)n[nH]1 | 3.8 | 17
CC1(c2cc(Nc3nc(N4CCN(C(=O)Cc5ccccc5)CC4)nn4cccc34)n[nH]2)CC1 | 7.7 | 9
Cc1cc(Nc2nc(N3CCN(C(=O)Cc4ccc(F)cc4F)CC3)nn3cccc23)n[nH]1 | 2.1 | 22
Cc1cc(Nc2nc(N3CCN(C(=O)CCc4ccccc4)CC3)nn3cccc23)n[nH]1 | 1.7 | 11
CC(C)n1cnc(Nc2nc(N3CCN(C(=O)Cc4ccccc4)CC3)nn3cccc23)c1 | 1.3 | 15
COc1ccc(CC(=O)N2CCN(c3nc(Nc4cc(C)[nH]n4)c4cccn4n3)CC2)cc1 | 7.9 | 30
Cc1ccc(CC(=O)N2CCN(c3nc(Nc4cc(C)[nH]n4)c4cccn4n3)CC2)cc1 | 2.8 | 20
COc1cc(F)c(CC(=O)N2CCN(c3nc(Nc4cc(C)n[nH]4)c4cccn4n3)CC2)c(F)c1 | 3.4 | 69
O=C(NC1CC1)c1cc(Nc2nc(N3CCN(C(=O)Cc4ccccc4)CC3)nn3cccc23)n[nH]1 | 0.75 | 19

Next, values leading:

Ratio IC50 [1] | Ratio IC50 [2] | SMILES
3 | 22 | Cc1cc(Nc2nc(N3CCN(C(=O)c4ccccc4Cl)CC3)nn3cccc23)n[nH]1
9.1 | 47 | Cc1cc(Nc2nc(N3CCN(C(=O)c4ccccc4Br)CC3)nn3cccc23)n[nH]1
13 | 19 | Cc1cc(Nc2nc(N3CCN(C(=O)c4ccccc4)CC3)nn3cccc23)n[nH]1
1.7 | 27 | Cc1cc(Nc2nc(N3CCN(C(=O)c4ccccc4C#N)CC3)nn3cccc23)n[nH]1
1.1 | 3.9 | Cc1ccc(C(=O)N2CCN(c3nc(Nc4cc(C)[nH]n4)c4cccn4n3)CC2)cc1
1.7 | 9.6 | Cc1cc(Nc2nc(N3CCN(C(=O)Cc4ccccc4C)CC3)nn3cccc23)n[nH]1
12 | 33 | Cc1cc(Nc2nc(N3CCN(C(=O)c4ccccc4C)CC3)nn3cccc23)n[nH]1
4.5 | 24 | COc1ccccc1C(=O)N1CCN(c2nc(Nc3cc(C)[nH]n3)c3cccn3n2)CC1
0.7 | 1.3 | Cc1cc(Nc2nc(N3CCN(C(=O)c4ccc(C#N)cc4)CC3)nn3cccc23)n[nH]1
3.9 | 94 | Cc1cc(Nc2nc(N3CCN(C(=O)c4ccccc4S(C)(=O)=O)CC3)nn3cccc23)n[nH]1

Source: ChEMBL document CHEMBL1681645, “Pyrrolo[1,2-f]triazines as JAK2 inhibitors: achieving potency and selectivity for JAK2 over JAK3” (Bioorg Med Chem Lett, 2011)
